Biological target: p65_45/14-3-3γ (Homo sapiens, UniProt P61981)
Assay: Fluorescence anisotropy protein titration, p65_45 peptide/14-3-3γ in presence of 1 mM fragment
Format: binding
Design: The full length 14-3-3γ was dialysis against 25 mM HEPES pH7.5; made in house; host or cells: E. coli BL21(DE3), pPROEX HTb
Conditions: fold-change of apparent KD in comparison to a DMSO control
Method: SF: the fold-change of apparent KD in comparison to a DMSO control.
During compound titrations, the 14-3-3γ concentration was constant 50 μM and the compound was titrated in a 1:1 dilution series. In protein titrations, 14-3-3γ was titrated in a 1:1 dilution series in the presence of 1 mM compound. The plates (Corning 384 well plates, black, round bottom, low binding) were incubated for 3 h RT prior to fluorescence anisotropy (FA) measurements with the Tecan Infinite 500 plate reader (FITC dye: excitation 485 nm, emission 535 nm). Dilution series were prepared in FA buffer (10 mM HEPES pH 7.4, 150 mM NaCl, 0.1% Tween20). All measurements were performed once.

Amino acid sequences for entries named in this document (tags omitted). A change or cut given only in a name is not applied to a line headed by its entry.
UniProt P61981: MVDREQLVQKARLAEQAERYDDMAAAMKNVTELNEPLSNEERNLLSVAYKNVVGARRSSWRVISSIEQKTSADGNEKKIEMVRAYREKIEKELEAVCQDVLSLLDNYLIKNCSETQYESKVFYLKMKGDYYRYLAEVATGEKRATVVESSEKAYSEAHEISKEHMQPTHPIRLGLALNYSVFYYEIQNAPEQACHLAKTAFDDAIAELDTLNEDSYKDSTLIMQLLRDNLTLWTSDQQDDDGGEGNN

- SF: 10.6
Compound: CC1CN(S(=O)(=O)c2ccc(C=O)cc2)CC(C)O1 (stereo not shown) [23v, 4-[(2,6-dimethylmorpholin-4-yl)sulfonyl]benzaldehyde]
